Reference: patent US5990096A (priority 1992, dated 1999)
Like-named read-outs stand apart in the source and are kept apart here.

Conditions: human, in vivo

Structure (SMILES): O=C(O)Cc1ccccc1Nc1c(Cl)cccc1Cl [V]
- Diclofenac concentration: ND (key: ND: NONE DETECTED (>5.0 ng ml^-1))
- Diclofenac concentration (topical_or_ocular, 15 min): ND (key: ND: NONE DETECTED (>5.0 ng ml^-1))
- Diclofenac concentration (topical_or_ocular, 30 min): ND (key: ND: NONE DETECTED (>5.0 ng ml^-1))
- Diclofenac concentration (topical_or_ocular, 180 min): ND (key: ND: NONE DETECTED (>5.0 ng ml^-1))
- Diclofenac concentration (topical_or_ocular, 240 min): ND (key: ND: NONE DETECTED (>5.0 ng ml^-1))
- Diclofenac concentration (topical_or_ocular, 360 min): ND (key: ND: NONE DETECTED (>5.0 ng ml^-1))
- Diclofenac concentration (topical_or_ocular, 480 min): ND (key: ND: NONE DETECTED (>5.0 ng ml^-1))
- Diclofenac concentration (topical_or_ocular, 600 min): ND (key: ND: NONE DETECTED (>5.0 ng ml^-1))
- Diclofenac concentration (topical_or_ocular, 720 min): ND (key: ND: NONE DETECTED (>5.0 ng ml^-1))
